LC retention time data for one molecule are collected here from the RepoRT retention time repository (doi:10.1021/acs.analchem.1c00972).

The series is described as follows: RP, Waters ACQUITY UPLC BEH C18, 100 × 1 mm, 1.7 µm, 50 °C, 0.3 mL/min, estimated dead time 0.17 min; A: water + 0.1% formic acid + 20 mM ammonium formate; B: methanol + 0.1% formic acid + 20 mM ammonium formate; gradient (min/%B) 0/0 15/100 21/100 22/0 30/0. The conditions noted are these: stereoisomer not certain.

With `COc1ccc(CO)cc1` [4-Methoxybenzyl alcohol], the LC retention time is 8 min.
